The target in assay [1] is Histone acetyltransferase p300 (Homo sapiens, UniProt Q09472). Briefly: Inhibition of C-terminal biotinylated tetra-acetylated histone peptide H4 binding to His6-fused human p300 bromodomain (A1040 to G1161 residues) incubated for 1 hrs by HTRF assay. (Time-resolved FRET reads energy transfer from a long-lived donor to a nearby acceptor.)
In assay [2] the target is CREB-binding protein (Homo sapiens, UniProt Q92793). Kind of assay: Inhibition of C-terminal biotinylated tetra-acetylated histone peptide H4 binding to His6-fused human CBP bromodomain (R1081 to G1197 residues) incubated for 1 hrs by HTRF assay.

The chains behind the UniProt entries cited, without tags or fusion partners.
UniProt Q09472, whole entry: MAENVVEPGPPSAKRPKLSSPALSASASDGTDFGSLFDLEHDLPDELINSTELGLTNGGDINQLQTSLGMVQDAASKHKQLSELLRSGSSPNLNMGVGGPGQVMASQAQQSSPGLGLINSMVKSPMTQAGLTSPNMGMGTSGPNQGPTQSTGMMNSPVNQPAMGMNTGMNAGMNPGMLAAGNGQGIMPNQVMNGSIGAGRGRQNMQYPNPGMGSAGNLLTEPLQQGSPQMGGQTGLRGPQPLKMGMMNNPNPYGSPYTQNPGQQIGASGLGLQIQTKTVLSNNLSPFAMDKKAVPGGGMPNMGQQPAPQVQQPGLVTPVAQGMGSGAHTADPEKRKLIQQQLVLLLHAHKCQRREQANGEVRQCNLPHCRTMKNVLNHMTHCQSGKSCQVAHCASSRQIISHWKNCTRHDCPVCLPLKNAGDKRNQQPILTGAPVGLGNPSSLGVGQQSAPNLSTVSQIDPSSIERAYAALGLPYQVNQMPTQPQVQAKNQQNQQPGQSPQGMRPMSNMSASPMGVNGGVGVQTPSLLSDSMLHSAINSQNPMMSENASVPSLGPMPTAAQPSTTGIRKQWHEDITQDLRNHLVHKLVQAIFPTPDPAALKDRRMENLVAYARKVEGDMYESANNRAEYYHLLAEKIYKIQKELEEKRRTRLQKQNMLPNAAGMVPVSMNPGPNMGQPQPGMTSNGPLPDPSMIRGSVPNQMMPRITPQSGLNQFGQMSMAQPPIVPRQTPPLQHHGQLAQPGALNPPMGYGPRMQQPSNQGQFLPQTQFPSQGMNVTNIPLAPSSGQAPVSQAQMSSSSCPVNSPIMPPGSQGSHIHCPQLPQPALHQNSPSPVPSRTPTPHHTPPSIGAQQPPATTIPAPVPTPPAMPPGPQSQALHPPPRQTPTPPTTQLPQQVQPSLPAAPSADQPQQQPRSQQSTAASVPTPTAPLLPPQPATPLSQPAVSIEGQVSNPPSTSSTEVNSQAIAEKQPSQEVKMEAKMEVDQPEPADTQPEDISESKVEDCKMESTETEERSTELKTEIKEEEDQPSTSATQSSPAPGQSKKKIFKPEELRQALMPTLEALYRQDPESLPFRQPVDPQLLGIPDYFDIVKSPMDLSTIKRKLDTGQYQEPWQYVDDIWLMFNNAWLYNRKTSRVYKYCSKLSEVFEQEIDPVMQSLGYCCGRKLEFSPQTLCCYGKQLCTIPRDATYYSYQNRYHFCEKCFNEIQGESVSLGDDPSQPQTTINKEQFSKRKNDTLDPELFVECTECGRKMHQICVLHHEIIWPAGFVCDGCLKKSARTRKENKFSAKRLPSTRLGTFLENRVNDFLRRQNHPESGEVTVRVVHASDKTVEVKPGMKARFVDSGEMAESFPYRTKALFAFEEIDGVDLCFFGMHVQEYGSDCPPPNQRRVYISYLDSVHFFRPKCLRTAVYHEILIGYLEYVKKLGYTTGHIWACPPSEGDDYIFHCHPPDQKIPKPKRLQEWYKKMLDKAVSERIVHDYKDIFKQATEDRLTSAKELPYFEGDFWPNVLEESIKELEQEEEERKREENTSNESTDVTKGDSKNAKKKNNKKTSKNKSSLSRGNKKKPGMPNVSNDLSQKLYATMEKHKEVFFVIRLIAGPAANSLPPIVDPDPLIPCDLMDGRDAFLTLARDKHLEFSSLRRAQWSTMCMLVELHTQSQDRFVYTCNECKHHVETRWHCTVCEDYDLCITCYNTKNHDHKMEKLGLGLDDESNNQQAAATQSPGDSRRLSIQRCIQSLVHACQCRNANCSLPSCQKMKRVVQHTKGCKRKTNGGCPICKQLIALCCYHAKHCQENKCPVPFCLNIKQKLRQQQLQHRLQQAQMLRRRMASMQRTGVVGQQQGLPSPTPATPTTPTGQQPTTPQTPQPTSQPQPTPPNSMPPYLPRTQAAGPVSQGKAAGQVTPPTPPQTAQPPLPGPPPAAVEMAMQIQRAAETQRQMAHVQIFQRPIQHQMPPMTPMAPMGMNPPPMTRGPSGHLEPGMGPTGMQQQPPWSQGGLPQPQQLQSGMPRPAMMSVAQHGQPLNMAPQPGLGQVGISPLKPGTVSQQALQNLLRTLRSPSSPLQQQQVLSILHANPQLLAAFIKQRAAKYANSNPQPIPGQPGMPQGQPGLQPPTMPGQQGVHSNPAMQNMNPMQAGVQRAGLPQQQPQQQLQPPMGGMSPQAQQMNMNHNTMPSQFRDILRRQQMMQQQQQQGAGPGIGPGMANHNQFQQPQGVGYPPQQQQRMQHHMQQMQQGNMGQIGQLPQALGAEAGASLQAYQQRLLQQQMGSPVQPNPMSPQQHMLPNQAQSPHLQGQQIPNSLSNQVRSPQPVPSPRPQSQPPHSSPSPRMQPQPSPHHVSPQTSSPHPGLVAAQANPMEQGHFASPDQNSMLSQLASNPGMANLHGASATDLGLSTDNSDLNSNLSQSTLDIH
UniProt Q92793, whole entry: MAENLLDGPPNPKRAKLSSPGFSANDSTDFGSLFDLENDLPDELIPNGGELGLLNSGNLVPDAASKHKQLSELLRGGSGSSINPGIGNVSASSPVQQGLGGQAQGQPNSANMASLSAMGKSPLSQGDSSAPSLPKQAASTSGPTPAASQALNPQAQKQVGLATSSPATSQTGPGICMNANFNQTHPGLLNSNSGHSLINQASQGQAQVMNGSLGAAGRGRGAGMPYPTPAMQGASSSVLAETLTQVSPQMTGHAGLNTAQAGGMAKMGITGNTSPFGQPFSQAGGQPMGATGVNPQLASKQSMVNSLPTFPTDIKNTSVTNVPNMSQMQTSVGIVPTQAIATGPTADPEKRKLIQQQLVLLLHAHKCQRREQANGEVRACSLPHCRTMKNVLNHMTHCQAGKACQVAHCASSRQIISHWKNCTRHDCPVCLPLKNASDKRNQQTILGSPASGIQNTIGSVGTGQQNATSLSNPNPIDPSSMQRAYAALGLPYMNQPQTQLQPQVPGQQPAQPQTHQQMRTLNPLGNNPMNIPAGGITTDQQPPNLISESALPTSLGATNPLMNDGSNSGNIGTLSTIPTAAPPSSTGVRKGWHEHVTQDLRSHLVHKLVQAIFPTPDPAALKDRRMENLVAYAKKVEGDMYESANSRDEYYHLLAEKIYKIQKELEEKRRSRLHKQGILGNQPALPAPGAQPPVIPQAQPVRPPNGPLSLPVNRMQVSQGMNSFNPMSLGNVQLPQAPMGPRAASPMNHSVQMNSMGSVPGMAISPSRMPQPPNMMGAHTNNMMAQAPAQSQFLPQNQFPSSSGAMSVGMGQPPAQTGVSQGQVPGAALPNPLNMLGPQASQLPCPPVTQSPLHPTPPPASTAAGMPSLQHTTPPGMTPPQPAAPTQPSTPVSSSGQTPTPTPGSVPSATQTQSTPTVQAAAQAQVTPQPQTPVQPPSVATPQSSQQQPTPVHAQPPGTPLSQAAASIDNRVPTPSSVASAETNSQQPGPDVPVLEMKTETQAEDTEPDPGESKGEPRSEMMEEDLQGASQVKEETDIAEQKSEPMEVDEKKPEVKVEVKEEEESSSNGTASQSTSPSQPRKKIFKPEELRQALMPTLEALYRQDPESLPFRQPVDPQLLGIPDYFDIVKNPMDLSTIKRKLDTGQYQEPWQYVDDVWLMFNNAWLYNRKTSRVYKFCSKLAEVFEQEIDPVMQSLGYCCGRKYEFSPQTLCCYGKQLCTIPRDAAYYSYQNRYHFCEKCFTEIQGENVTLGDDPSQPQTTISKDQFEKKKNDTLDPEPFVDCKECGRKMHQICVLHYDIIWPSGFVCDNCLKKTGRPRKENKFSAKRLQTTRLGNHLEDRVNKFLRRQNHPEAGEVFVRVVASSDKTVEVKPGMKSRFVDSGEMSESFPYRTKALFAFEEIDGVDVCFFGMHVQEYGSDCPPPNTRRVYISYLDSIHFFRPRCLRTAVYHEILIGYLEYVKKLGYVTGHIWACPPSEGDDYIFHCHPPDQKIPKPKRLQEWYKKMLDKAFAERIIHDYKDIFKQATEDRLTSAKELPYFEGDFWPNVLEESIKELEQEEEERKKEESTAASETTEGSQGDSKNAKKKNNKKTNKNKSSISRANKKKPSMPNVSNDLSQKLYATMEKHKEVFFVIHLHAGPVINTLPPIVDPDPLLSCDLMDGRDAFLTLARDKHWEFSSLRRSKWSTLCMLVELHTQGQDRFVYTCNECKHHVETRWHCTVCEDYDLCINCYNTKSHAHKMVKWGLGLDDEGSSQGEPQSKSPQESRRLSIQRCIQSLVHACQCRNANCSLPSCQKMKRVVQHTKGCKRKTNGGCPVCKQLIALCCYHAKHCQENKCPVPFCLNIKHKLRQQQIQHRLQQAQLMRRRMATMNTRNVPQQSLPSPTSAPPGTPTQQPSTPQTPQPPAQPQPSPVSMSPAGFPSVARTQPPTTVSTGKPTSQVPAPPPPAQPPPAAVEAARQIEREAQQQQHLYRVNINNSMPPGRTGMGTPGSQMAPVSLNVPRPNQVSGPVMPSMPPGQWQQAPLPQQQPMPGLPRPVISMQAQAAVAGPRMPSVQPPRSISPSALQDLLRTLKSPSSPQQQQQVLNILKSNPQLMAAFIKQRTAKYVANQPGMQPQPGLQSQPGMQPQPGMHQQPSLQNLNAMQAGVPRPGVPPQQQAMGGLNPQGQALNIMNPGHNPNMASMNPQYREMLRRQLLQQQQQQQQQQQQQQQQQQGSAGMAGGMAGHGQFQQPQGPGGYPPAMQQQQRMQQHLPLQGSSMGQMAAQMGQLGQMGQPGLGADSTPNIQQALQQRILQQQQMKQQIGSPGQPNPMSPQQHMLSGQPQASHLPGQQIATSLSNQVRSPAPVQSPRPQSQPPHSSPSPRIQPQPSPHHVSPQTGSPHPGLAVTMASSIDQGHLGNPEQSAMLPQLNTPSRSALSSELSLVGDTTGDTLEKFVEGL

Data on one compound can be found in ChEMBL document CHEMBL5512685, “Discovery of a Promising CBP/p300 Degrader XYD129 for the Treatment of Acute Myeloid Leukemia” (J Med Chem, 2024).

Each structure is given as a SMILES string. pIC50: −log10 of the molar value.

`CO[C@H]1CC[C@H](n2c([C@@H]3CCCC(=O)N3c3ccc(F)c(F)c3)nc3cc(-c4c(C)noc4C)ccc32)CC1` [INOBRODIB]: the pIC50 (usually the negative decadic logarithm of the IC50, by convention in mol/L) in assay [1] is 8.30; in assay [2], 8.52.
